Experimental data reported in US20040102438A1, “Gaba-receptor modulators for the treatment of neurodegenerative diseases of the eye” (priority 2001, published 2004).

Assay: Properties of the active ingredients (solubility, lipophilicity)
Type: physicochemical

Question: For CCCC(C)C1(CC)C(=O)N=C([O-])NC1=O.[Na+] (stereo not shown) [pentobarbital-Na], which “lipophilic / hydrophilic character” value is on record?
Answer: hydrophilic
